# Source: publication PMC7723054
# The other results are listed elsewhere or left out.
# T1: LIN28A (human?, UniProt Q9H9Z2 1-209)
# T1 sequence: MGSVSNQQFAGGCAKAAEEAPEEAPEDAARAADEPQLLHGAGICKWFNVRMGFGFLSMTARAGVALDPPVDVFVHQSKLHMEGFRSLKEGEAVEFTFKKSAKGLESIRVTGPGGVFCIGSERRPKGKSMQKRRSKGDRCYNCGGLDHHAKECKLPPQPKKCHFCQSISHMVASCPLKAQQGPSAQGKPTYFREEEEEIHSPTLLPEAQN
# T2: CIRBP (Homo sapiens, UniProt Q14011 1-172)
# T2 sequence: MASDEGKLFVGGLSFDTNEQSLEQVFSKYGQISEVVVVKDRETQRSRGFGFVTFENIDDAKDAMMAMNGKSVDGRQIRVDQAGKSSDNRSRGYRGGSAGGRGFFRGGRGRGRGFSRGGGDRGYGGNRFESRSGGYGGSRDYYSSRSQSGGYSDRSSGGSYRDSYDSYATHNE
# T3: DHX36 (Homo sapiens, UniProt Q9H2U1 1-1008)
# T3 sequence: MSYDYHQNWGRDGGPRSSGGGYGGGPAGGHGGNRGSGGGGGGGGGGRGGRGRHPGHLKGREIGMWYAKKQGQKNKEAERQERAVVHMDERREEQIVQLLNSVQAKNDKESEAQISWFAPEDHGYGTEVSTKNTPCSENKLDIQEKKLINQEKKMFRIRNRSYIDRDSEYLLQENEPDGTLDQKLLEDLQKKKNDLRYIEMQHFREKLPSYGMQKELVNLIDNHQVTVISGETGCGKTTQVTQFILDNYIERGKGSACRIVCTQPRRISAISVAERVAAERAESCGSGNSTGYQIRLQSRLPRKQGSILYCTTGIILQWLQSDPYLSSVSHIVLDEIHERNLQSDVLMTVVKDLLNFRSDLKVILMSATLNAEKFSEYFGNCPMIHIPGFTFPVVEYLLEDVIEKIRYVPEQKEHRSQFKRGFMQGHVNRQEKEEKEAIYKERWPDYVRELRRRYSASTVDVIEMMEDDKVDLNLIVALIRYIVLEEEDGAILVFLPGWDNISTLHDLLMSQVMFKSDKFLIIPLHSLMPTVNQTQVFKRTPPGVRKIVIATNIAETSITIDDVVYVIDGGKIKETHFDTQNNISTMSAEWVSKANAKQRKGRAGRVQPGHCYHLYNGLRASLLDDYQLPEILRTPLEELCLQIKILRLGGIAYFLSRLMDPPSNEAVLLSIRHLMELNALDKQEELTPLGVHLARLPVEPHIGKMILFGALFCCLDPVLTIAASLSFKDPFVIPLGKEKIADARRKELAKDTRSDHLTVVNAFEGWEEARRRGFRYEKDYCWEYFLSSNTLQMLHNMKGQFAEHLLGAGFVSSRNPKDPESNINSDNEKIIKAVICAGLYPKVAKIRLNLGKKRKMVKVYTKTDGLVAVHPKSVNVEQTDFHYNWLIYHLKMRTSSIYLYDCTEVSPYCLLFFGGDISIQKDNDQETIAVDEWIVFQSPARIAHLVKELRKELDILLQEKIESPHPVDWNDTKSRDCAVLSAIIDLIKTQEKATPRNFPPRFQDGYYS
# B1: hsa-mir-5092 (structured_RNA)
# RNA: GGGAAAGGAACCCAGCCGUCACAGAAAUGGUGUACGAAGUUUCAGCGACUGGACAACAUGAUGAGCCCAAACCAAUCGCUGAAGCUUCGUGCAC
# B2: hsa-mir-345 (structured_RNA)
# RNA: GGGAAUGCGCCCACAGGAACAAACUCUGGGUGUACGAAGUUUCAGCGGGCUCGUGAUGGCUGGUGGGCCCGCUGAAGCUUCGUGCAC
# B3: hsa-mir-9-2 (structured_RNA)
# RNA: GGGAACUUAUGGCGCACAAUGGUAGGCGGGUGUACGAAGUUUCAGCGUAUGAGUGUAUUGGUCUUCAUAAGCUGAAGCUUCGUGCAC
# B4: hsa-mir-31 (structured_RNA)
# RNA: GGGAAGACAUCGGUAUCAUGAGCCGCCAGGUGUACGAAGUUUCAGCAGCUGUUGAACUGGGAACCUGCUGCUGAAGCUUCGUGCAC
# B5: hsa-mir-16-2 (structured_RNA)
# RNA: GGGAAAGGUUAUGGGCGAGUCAGAAAAUGGUGUACGAAGUUUCAGCUUGGCGUAGUGAAAUAUAUAUUAAACACCAAGCUGAAGCUUCGUGCAC
# B6: hsa-mir-548ad (structured_RNA)
# RNA: GGGAGCUCUAGCAGCACCAAGUAGUAUAGGUGUACGAAGUUUCAGCUUUUGAAAGUAACUUGGCGAAAGCUGAAGCUUCGUGCAC
# B7: hsa-mir-626 (structured_RNA)
# RNA: GGGAAAUGUUGAUUAGGGCUUACAACGGGGUGUACGAAGUUUCAGCAUCUGAAUGAUCUCAGCGCUGAAGCUUCGUGCAC
# B8: hsa-mir-7150 (structured_RNA)
# RNA: GGGACAGUAACCAAGCCCUGUAUGGCCGGGUGUACGAAGUUUCAGCGGUAAGGUCUUUCAGCCGCUGAAGCUUCGUGCAC
# B9: hsa-mir-585 (structured_RNA)
# RNA: GGGAAUAUAAGACUGGUGAGUCGCCACUGGUGUACGAAGUUUCAGCCCCAGAGAAAGCCUGAACGUUGGGGCUGAAGCUUCGUGCAC
# B10: hsa-mir-4659b (structured_RNA)
# RNA: GGGAACGACGGGUAGUGUAUAUAUGAUCGGUGUACGAAGUUUCAGCAGAAAAUUUUUCUCCAAAGUUUUCUGCUGAAGCUUCGUGCAC
# B11: hsa-mir-6720 (structured_RNA)
# RNA: GGGAGGACCACAAACCCGUAGUACUCAUGGUGUACGAAGUUUCAGCGCCGCGGAAGAAGGGGAAGCGCGCUGAAGCUUCGUGCAC
# B12: hsa-mir-6503 (structured_RNA)
# RNA: GGGAAUGGGUCUAAAGGUAAUGGAAUCUGGUGUACGAAGUUUCAGCUCCCCAGAAGCUGAGGAUUAGGGGAGCUGAAGCUUCGUGCAC
# B13: hsa-mir-8065 (structured_RNA)
# RNA: GGGAGAGUGACCCAAGACUGCCUUUAACGGUGUACGAAGUUUCAGCUGUAUUUUUCAGCAAGGCAAGGGCUUUGAUGUCUUGUAGCUGAAGCUUCGUGCAC
# B14: hsa-mir-145 (structured_RNA)
# RNA: GGGAGACCACGGUAGGCCCGUAUAACACGGUGUACGAAGUUUCAGCAUCCCUUAGAUGCUAAGAUGGGGAUGCUGAAGCUUCGUGCAC
# B15: hsa-mir-4267 (structured_RNA)
# RNA: GGGAAAAGUAGGUAGGGAUACACCAAGAGGUGUACGAAGUUUCAGCCUGGGGGAAGGCUCCAGACCCCAGCCUGCUGAAGCUUCGUGCAC
# B16: hsa-mir-376c (structured_RNA)
# RNA: GGGAAAACUGUGCCUCGGACGACGUUAUGGUGUACGAAGUUUCAGCUGUUUAUGUUAUUUAUGGUUAAACAGCUGAAGCUUCGUGCAC
# B17: hsa-mir-3927 (structured_RNA)
# RNA: GGGAGAUAUAAGGAGGGUAUAACCGUCUGGUGUACGAAGUUUCAGCCCUGUCCUAUGACAAACAUGGCAGGGCUGAAGCUUCGUGCAC
# B18: hsa-mir-6785 (structured_RNA)
# RNA: GGGAAAGAUAUUACAGCGAACACGUACGGGUGUACGAAGUUUCAGCUGGUGGGAGAGGAGCCCCACUGUGGAAGUCUGACCCCCACAGCUGAAGCUUCGUGCAC
# B19: hsa-mir-4526 (structured_RNA)
# RNA: GGGAGAAAACAUAACGGUACUCAACGGUGGUGUACGAAGUUUCAGCAUGCCCCAGGUGACGUGCUGGGCUGCUGAAGCUUCGUGCAC
# B20: hsa-mir-3924 (structured_RNA)
# RNA: GGGAAAGACAGAUGGCUCGGUACGAACUGGUGUACGAAGUUUCAGCAGAUCUAUGUCAUAUAUACAGAUAUGCUGAAGCUUCGUGCAC
# B21: hsa-mir-639 (structured_RNA)
# RNA: GGGAACAUGAGUGUUGCUAACAUGCGCCGGUGUACGAAGUUUCAGCCGGGGCGGACGCAGAGCCGCGUUUAGUCUAUCGGCUGAAGCUUCGUGCAC
# B22: hsa-mir-5189 (structured_RNA)
# RNA: GGGAAGUUAUGUGAAUCGAUGAAAACGUGGUGUACGAAGUUUCAGCGACAGGCUGGCCUCUGGAUGACCUGCGCUGAAGCUUCGUGCAC
# B23: hsa-mir-4764 (structured_RNA)
# RNA: GGGAAUAUGACAUAUCACACCGUAGCGGGGUGUACGAAGUUUCAGCUUAUCUGUCACCAGUCAGAUAACUGUCACCAGUCAGUUAAGCUGAAGCUUCGUGCAC
# B24: hsa-mir-611 (structured_RNA)
# RNA: GGGACAAACCAGGCGGGAAUAUUAGGAAGGUGUACGAAGUUUCAGCUCCAGACGGAGAUGCGAGCUGAAGCUUCGUGCAC
# B25: hsa-mir-526a-1 (structured_RNA)
# RNA: GGGACCAGACUACGGGAAAUUAAGUCUAGGUGUACGAAGUUUCAGCUCUGUUGCUUGAAAGAAGAGAGCUGAAGCUUCGUGCAC
# B26: hsa-mir-1245b (structured_RNA)
# RNA: GGGAAGAUUGACGGGUGUCGCACAAAACGGUGUACGAAGUUUCAGCUAAAGAGUAUUCAACAUCGCUGAAGCUUCGUGCAC
# Target: T1, LIN28A
# Experiment: FOREST: bead pull-down of RNA structure library v1, barcode microarray; U1A/LIN28A: 20 mM HEPES pH 7.5, 80 mM KCl, 20 mM NaCl, 10% glycerol, 2 mM DTT, 0.1 ug/uL BSA, 4 C; BG4/CIRBP/DHX36: 10 mM Tris-HCl pH 7.5, 100 mM KCl (or LiCl),; high values mean tight binding
row,Binder,binding signal
1,B1,1.26 z-score
2,B2,1.28 z-score
3,B3,1.31 z-score
4,B4,1.29 z-score
5,B5,1.29 z-score
6,B6,1.35 z-score
7,B7,1.29 z-score
8,B8,1.41 z-score
9,B9,1.33 z-score
10,B10,1.4 z-score
11,B11,1.29 z-score
12,B12,1.29 z-score
13,B13,1.31 z-score
14,B14,1.35 z-score
15,B15,1.34 z-score
16,B16,1.3 z-score
17,B17,1.33 z-score
18,B18,1.35 z-score
19,B19,1.28 z-score
20,B20,1.26 z-score
21,B21,1.28 z-score
22,B22,1.41 z-score
23,B23,1.29 z-score
24,B24,1.29 z-score
25,B25,1.3 z-score
26,B26,1.27 z-score

# Target: T2, CIRBP
# Experiment: as above
row,Binder,binding signal
1,B1,0.938 z-score
2,B2,-0.221 z-score
3,B3,0.83 z-score
4,B4,0.981 z-score
5,B5,0.919 z-score
6,B6,0.0801 z-score
7,B7,0.985 z-score
8,B8,0.292 z-score
9,B9,1 z-score
10,B10,0.716 z-score
11,B11,0.503 z-score
12,B12,0.353 z-score
13,B13,0.576 z-score
14,B14,0.578 z-score
15,B15,0.422 z-score
16,B16,0.259 z-score
17,B17,1.16 z-score
18,B18,2.03 z-score
19,B19,0.44 z-score
20,B20,1.43 z-score
21,B21,0.784 z-score
22,B22,3.72 z-score
23,B23,0.754 z-score
24,B24,0.674 z-score
25,B25,0.0186 z-score
26,B26,0.905 z-score

# Target: T3, DHX36
# Experiment: as above
row,Binder,binding signal
1,B1,0.0117 z-score
2,B2,1.02 z-score
3,B3,1.14 z-score
4,B4,0.286 z-score
5,B5,-0.189 z-score
6,B6,-0.51 z-score
7,B7,-0.74 z-score
8,B8,-0.396 z-score
9,B9,-0.00929 z-score
10,B10,1.21 z-score
11,B11,0.869 z-score
12,B12,0.815 z-score
13,B13,-0.0834 z-score
14,B14,0.501 z-score
15,B15,0.266 z-score
16,B16,0.0421 z-score
17,B17,0.266 z-score
18,B18,0.942 z-score
19,B19,-0.0671 z-score
20,B20,0.32 z-score
21,B21,0.445 z-score
22,B22,1.2 z-score
23,B23,-0.528 z-score
24,B24,1.28 z-score
25,B25,1.2 z-score
26,B26,-0.58 z-score
